Laboratory results published in ChEMBL document CHEMBL1156153, “Novel benzofuran-3-one indole inhibitors of PI3 kinase-alpha and the mammalian target of rapamycin: hit to lead studies” (Bioorg Med Chem Lett, 2010).

Sequences of proteins named here, by UniProt entry; tags and fusion partners are left off.
UniProt P42336, whole entry: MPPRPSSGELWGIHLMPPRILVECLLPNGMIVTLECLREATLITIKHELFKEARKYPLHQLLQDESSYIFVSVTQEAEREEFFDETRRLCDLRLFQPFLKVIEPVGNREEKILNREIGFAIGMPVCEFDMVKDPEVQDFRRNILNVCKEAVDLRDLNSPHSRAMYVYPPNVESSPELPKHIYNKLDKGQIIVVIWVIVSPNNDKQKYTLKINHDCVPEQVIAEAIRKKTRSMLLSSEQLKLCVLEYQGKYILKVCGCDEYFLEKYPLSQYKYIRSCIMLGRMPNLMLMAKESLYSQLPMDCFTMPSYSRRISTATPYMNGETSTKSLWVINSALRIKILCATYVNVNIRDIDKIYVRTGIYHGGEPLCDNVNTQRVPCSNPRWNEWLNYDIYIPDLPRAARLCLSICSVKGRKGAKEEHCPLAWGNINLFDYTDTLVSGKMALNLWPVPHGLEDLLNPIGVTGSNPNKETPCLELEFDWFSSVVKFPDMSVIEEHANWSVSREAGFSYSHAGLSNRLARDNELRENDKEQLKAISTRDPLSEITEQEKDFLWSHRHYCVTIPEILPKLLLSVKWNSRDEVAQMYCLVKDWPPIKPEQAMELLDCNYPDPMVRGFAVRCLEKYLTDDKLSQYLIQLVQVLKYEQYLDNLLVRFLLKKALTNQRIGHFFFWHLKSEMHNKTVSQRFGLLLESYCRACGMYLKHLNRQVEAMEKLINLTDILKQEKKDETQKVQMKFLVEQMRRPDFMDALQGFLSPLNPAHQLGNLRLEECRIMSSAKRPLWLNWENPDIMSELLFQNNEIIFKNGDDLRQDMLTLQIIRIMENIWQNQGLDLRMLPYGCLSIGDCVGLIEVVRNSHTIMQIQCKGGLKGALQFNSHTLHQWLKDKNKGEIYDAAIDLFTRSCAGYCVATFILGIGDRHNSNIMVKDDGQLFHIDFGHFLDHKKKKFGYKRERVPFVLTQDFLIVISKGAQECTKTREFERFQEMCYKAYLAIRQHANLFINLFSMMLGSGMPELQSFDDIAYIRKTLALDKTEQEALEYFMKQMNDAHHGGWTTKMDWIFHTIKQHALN

Target: Phosphatidylinositol 4,5-bisphosphate 3-kinase catalytic subunit alpha isoform (Homo sapiens, UniProt P42336)
Assay: Inhibition of PI3Kalpha
Summary of the method: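 Fluorescence polarization assays for PI3K-α (p110α) and PI3K-γ (p110γ) monitored PIP3 production.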

COc1ccc2[nH]c(-c3ccccc3)c(/C=C3\Oc4cc(O)cc(O)c4C3=O)c2c1
IC50: 2 nM
